Assay results reported in patent US6677338B2, “Serotonin transport inhibitors” (President and Fellows of Harvard College, priority 1997, dated 2004).

The chains behind the UniProt entries cited, without tags or fusion partners.
UniProt Q9MYX0, whole entry: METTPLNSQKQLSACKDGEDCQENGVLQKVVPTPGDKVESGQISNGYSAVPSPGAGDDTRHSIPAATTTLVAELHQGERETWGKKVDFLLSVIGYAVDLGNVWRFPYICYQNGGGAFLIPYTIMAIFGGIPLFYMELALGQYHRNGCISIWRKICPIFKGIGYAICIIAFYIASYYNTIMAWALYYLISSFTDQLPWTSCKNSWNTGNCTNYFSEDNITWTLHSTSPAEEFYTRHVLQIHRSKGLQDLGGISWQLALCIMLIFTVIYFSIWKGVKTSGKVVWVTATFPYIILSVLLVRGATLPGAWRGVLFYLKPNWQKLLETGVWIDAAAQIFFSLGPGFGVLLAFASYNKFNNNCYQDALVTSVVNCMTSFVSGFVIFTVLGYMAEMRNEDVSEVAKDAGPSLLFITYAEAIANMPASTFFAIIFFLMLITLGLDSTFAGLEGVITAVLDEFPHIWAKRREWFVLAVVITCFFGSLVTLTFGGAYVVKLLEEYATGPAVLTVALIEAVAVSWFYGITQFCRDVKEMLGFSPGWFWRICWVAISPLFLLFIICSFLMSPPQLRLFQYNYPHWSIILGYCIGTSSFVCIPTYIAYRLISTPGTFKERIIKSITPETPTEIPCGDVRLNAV

Biological target: Serotonin transporter (SERT) (Macaca mulatta, UniProt Q9MYX0)
Assay: (3H)citalopram competition binding in monkey striatum homogenates
Details: fold selectivity for serotonin over dopamine transporter

COC(=O)C1C(c2ccc(Cl)c(Cl)c2)CC2CCC1N2C (stereo not shown)
SERT/DAT Selectivity: 0.4
